scFv variants of Ab-14 (heavy chain) against a SARS-CoV-2 spike peptide

From the AlphaSeq antibody data of Li et al. 2023 (doi:10.1038/s41467-023-39022-2), copy in the FLAb collection.

Binding partner: SARS-CoV-2 spike HR2 peptide, sequence PDVDLGDISGINAS.

Ab-14 is the parent antibody, in scFv form: VH, then a 15-residue (Gly4Ser)3 linker, then VL. The light chain is unchanged in all variants.
VH: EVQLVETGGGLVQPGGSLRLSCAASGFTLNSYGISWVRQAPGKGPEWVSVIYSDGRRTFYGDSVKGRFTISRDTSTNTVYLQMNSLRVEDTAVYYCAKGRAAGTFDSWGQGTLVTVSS
VL: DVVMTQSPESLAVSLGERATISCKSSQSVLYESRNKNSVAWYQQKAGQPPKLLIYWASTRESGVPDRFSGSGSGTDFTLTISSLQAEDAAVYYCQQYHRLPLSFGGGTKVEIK

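The variants were designed computationally from a first round of random CDR variants and then made and measured. Several design methods are mixed in this list. The scFvs were displayed on barcoded MATa yeast, the peptide on MATalpha yeast. After mating in shaken culture at 30 °C for 16 h, diploids were selected and their barcode pairs sequenced. Each replicate has its own calibration line, from reference interactions of the BCL2 family. There are six technical replicates.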

The parent's heavy chain CDRs are GFTLNSYGIS, VIYSDGRRTFYGDSVK, GRAAGTFDS; each variant's own CDRs replace them letter for letter.
Variants here have more than six changes.
The Kd shown is the geometric mean over detected replicates; a lower Kd is a better binder.
An entry "not detected" has no value in the source: the pair was not observed among the diploids in any replicate. This suggests poor binding but is not conclusive.
Order: sorted from the lowest average up, undetected variants last.
A sequence measured in both rounds can read differently, since the two assays cover different ranges.
Nonspecific signal, from three strains lacking the peptide, appeared in 1% of pairings of all heavy chain designs, centred on 120 nM (5% of these signals below 7.0 nM); values are not corrected for it. The control count says in how many pairings with the empty strains this scFv gave a signal.
The parent sequence was in this pool as ten entries: three were never detected, three once, and four in most replicates, with averages from 2.2 nM to 240 nM.
The authors' rule: three or more of the six replicates give a measured affinity, fewer mean a poor binder.

| CDR-H1 | CDR-H2 | CDR-H3 | Kd | detected | control signals |
|---|---|---|---|---|---|
| GFDLNEYGIS | VIYADGRRTFYVDSVK | GGNAGTFDV | 52 pM | 6 of 6 | 0 of 18 |
| GFDLNEYGIS | VIYADGMRTAYADNVK | GNVAGTFDI | 66 pM | 5 of 6 | 0 of 18 |
| GFDLNEYGIS | VIYADGRRTFYTDSVK | GANAGTFDK | 100 pM | 6 of 6 | 0 of 18 |
| GFDLNEYGIS | VIYADGQRTFYSDSVK | GQTAGTFDV | 140 pM | 6 of 6 | 1 of 18 |
| GFDLNEYGIS | VIYADGQRTAYADSVK | GNVAGTFDF | 140 pM | 6 of 6 | 0 of 18 |
| GFDLNEYGIS | VIYADGQRTAYADSVK | GNNAGTFDI | 150 pM | 6 of 6 | 0 of 18 |
| GFDLNEYGIS | VIYADGVRTAYSDKVK | GNVAGTFDI | 280 pM | 6 of 6 | 0 of 18 |
| GFDLNEYGIS | VIYADGQRTAYSDSVK | GEVAGTFDL | 300 pM | 6 of 6 | 0 of 18 |
| GFDIDEYGIS | VIYADGRRTFYADSVK | GNNAGTFDV | 320 pM | 6 of 6 | 0 of 18 |
| GFDLDEYGIS | VIYADGKRTAYSDSVK | GETAGTFDQ | 330 pM | 6 of 6 | 0 of 18 |
| GFDLNEYGIS | VIYADGVRTAYADSVK | GQNAGTFDL | 340 pM | 6 of 6 | 0 of 18 |
| GFDLEEYGIS | VIYADGRRTAYTDSVK | GNVAGTFDV | 340 pM | 6 of 6 | 0 of 18 |
| GFDLNEYGIS | VIYADGMRTAYADDVK | GSNAGTFDV | 350 pM | 6 of 6 | 0 of 18 |
| GFDLNEYGIS | VIYADGMRTSYSDSVK | GEVAGTFDV | 430 pM | 6 of 6 | 0 of 18 |
| GFDLDEYGIS | VIYADGMRTAYADSVK | GNEAGTFDL | 430 pM | 5 of 6 | 0 of 18 |
| GFSLDEYGIS | VIYADGVRTFYADDVK | GNVAGTFDV | 470 pM | 6 of 6 | 0 of 18 |
| GFDLNEYGIS | VIYADGMRTAYADDVK | GVNAGTFDV | 490 pM | 6 of 6 | 0 of 18 |
| GFDLNEYGIS | VIYADGMRTAYTDSVK | GENAGTFDM | 540 pM | 6 of 6 | 0 of 18 |
| GFDINEYGIS | VIYADGRRTAYADSVK | GEQAGTFDV | 550 pM | 6 of 6 | 0 of 18 |
| GFNLNEYGIS | VIYADGRRTFYADSVK | GEIAGSFDI | 580 pM | 6 of 6 | 1 of 18 |
| GFDLNEYGIS | VIYADGKRTVYADSVK | GENAGTFDM | 600 pM | 6 of 6 | 0 of 18 |
| GFDLNEYGIS | VIYADGLRTAYADSVK | GNVAGTFDI | 600 pM | 6 of 6 | 0 of 18 |
| GFDLDEYGIS | VIYADGMRTAYADNVK | GQNAGTFDV | 630 pM | 6 of 6 | 0 of 18 |
| GFDLNEYGIS | VIYADGVRTAYADNVK | GENAGTFDV | 700 pM | 6 of 6 | 0 of 18 |
| GFDLNEYGIS | VIYADGVRTSYADSVK | GNQAGTFDV | 720 pM | 6 of 6 | 0 of 18 |
| GFDLNDYGIS | VIYADGRRTAYADSVK | GEVAGTFDS | 770 pM | 6 of 6 | 0 of 18 |
| GFDLNEYGIS | VIYADGRRTFYADSVK | GQLAGTFDI | 790 pM | 6 of 6 | 0 of 18 |
| GFDLDEYGIS | VIYADGRRTFYADSVK | GETAGTFDI | 880 pM | 6 of 6 | 0 of 18 |
| GFDLDEYGIS | VIYADGMRTAYSDSVK | GNEAGTFDT | 980 pM | 6 of 6 | 0 of 18 |
| GFDLNEYGIS | VIYADGKRTAYADSVK | GQNAGTFDI | 980 pM | 6 of 6 | 0 of 18 |
| GFDLDEYGIS | VIYADGMRTAYSDSVK | GNVAGTFDA | 1.1 nM | 6 of 6 | 0 of 18 |
| GFDLNEYGIS | VIYADGRRTFYADNVK | GEVAGTFVV | 1.1 nM | 6 of 6 | 0 of 18 |
| GFNINEYGIS | VIYADGQRLSYDDKVK | GDIGGTFND | 2.0 nM | 6 of 6 | 0 of 18 |
| GFDLNEYGIS | VIYADGMRTAYADDVK | GENAGTFDV | 2.2 nM | 6 of 6 | 0 of 18 |
| GFDLNEYGIS | VIYADGMRTQYADSVK | GNQAGTFDV | 2.2 nM | 6 of 6 | 0 of 18 |
| GFDLDEYGIS | VIYADGMRTVYADSVK | GNVAGTFDV | 2.4 nM | 6 of 6 | 0 of 18 |
| GFKLDEYGIS | VIYADGLRMHYANSVK | GEGAGTFTT | 40 nM | 5 of 6 | 1 of 18 |
| GSDLNEYGIS | VIYADGKRSYYTDSVK | GGYNIGASV | 45 nM | 6 of 6 | 0 of 18 |
| GFDLNEYGIS | VIYADGVRTAYADSVK | GENAGTFVI | 80 nM | 4 of 6 | 0 of 18 |
| GFNLDEYGIS | VIYADGYRRAYAQSVK | GYNSSTGVT | 270 nM | 1 of 6 | 1 of 18 |
| GFSLDEYGIS | VIYADGLRSFYQDQVK | GELALSLDT | 8.2 µM | 1 of 6 | 2 of 18 |
| GQDLNEYGIS | VIYADGLRTAYTNNVK | GVQSGFDQG | not detected | 0 of 6 | 0 of 18 |
| GYDIQDYGIS | VIYADGVRTVYHDSVK | GQLSGFFIT | not detected | 0 of 6 | 0 of 18 |
| GFNIDEYGIS | VIYADGMRTAYSNAVK | GNVNGDTFS | not detected | 0 of 6 | 0 of 18 |
| GNNLDEYGIS | VIYADGQRSAYAQDVK | GKTGDNAFI | not detected | 0 of 6 | 0 of 18 |
| GFKLDEQGIS | VIYADGRRKGYTDSVK | GTNGINFTL | not detected | 0 of 6 | 0 of 18 |
| GDSLEDYGIS | VIYADGRRTAYQESVK | GLYAGMLDV | not detected | 0 of 6 | 0 of 18 |
| GNDIEEYGIS | VIYADGQRVNAAQNFK | GKQAGTFNL | not detected | 0 of 6 | 0 of 18 |
| GYSLQDYGIS | VIYADGKRKSYAEDVK | GNTAGSFMD | not detected | 0 of 6 | 0 of 18 |
| GFDINEYGVS | VIYADGMRAAYTDSVK | GKGAGIALV | not detected | 0 of 6 | 0 of 18 |
| GFDIDEMGIS | VIYADGKRTAYSNQVK | GNINKDGMS | not detected | 0 of 6 | 1 of 18 |
| GFNIDEFGIS | VIYADGKRSSYSDSVK | GQLGNAFDL | not detected | 0 of 6 | 0 of 18 |
| GEDLLEIGIS | VIYADGSRVAYTNAVK | GNEAGVFDL | not detected | 0 of 6 | 0 of 18 |
| GFTLDEYGIS | VIYADGMRTQYADQVK | GLLVATVMT | not detected | 0 of 6 | 0 of 18 |
| GRDIEEYGIS | VIYADGVRTVYHDSVK | GQNAGFFIT | not detected | 0 of 6 | 0 of 18 |
| GFDLNEYGIS | VIYADGMRRAYAQNFK | GVTGGGLGI | not detected | 0 of 6 | 0 of 18 |
| GFSLENYGIS | VIYADGMRTAYANSVK | GENDGYDTT | not detected | 0 of 6 | 0 of 18 |
| GFQINEYGIS | VIYADGLRTAYSQQVK | GQDTVNFVD | not detected | 0 of 6 | 0 of 18 |
| GQDLSEYGVS | VIYADGVRRSYAESVK | GNTSGNFSS | not detected | 0 of 6 | 0 of 18 |
| GFDLEEYGIS | VIYADGLRVFYADSVK | GGFDGYKVR | not detected | 0 of 6 | 0 of 18 |
| GFNLDEYGIS | VIYADGYRRAYAQSVK | GYNSSLGVT | not detected | 0 of 6 | 1 of 18 |
| GFGLDEYGIS | VIYADGRRTGYQDSFK | GANNFFVKM | not detected | 0 of 6 | 0 of 18 |
| GKTLDEYGIS | VIYADGMRTQYIDQVK | GGIDGWNMT | not detected | 0 of 6 | 0 of 18 |
| GFDLEEYGIS | VIYADGRRVAYSDRVK | GIDVYGKVM | not detected | 0 of 6 | 0 of 18 |
| GFDLNEYGIS | VIYADGRRYHYQDSVK | GNVVGSVMY | not detected | 0 of 6 | 1 of 18 |

10 of these entries, quoted again:

| CDR-H1 | CDR-H2 | CDR-H3 | Kd | detected | control signals |
|---|---|---|---|---|---|
| GFDIDEYGIS | VIYADGRRTFYADSVK | GNNAGTFDV | 320 pM | 6 of 6 | 0 of 18 |
| GFDLNEYGIS | VIYADGRRTFYVDSVK | GGNAGTFDV | 52 pM | 6 of 6 | 0 of 18 |
| GFDLDEYGIS | VIYADGMRTAYADNVK | GQNAGTFDV | 630 pM | 6 of 6 | 0 of 18 |
| GFDLNEYGIS | VIYADGMRTAYADDVK | GENAGTFDV | 2.2 nM | 6 of 6 | 0 of 18 |
| GFDLDEYGIS | VIYADGMRTAYSDSVK | GNEAGTFDT | 980 pM | 6 of 6 | 0 of 18 |
| GFDLNEYGIS | VIYADGRRTFYTDSVK | GANAGTFDK | 100 pM | 6 of 6 | 0 of 18 |
| GFTLDEYGIS | VIYADGMRTQYADQVK | GLLVATVMT | not detected | 0 of 6 | 0 of 18 |
| GQDLSEYGVS | VIYADGVRRSYAESVK | GNTSGNFSS | not detected | 0 of 6 | 0 of 18 |
| GFDLNEYGIS | VIYADGMRTAYTDSVK | GENAGTFDM | 540 pM | 6 of 6 | 0 of 18 |
| GFDLNEYGIS | VIYADGMRTQYADSVK | GNQAGTFDV | 2.2 nM | 6 of 6 | 0 of 18 |